From US20260152497A1, “MIDAZO[4,5-c]QUINOLINE-4-AMINE COMPOUNDS AND CONJUGATES THEREOF, THEIR PREPARATION, AND THEIR [sequence] APPLICATIONS” (SANOFI, priority 2021, published 2026)

What was measured:
human TLR7 [1] = biological target: T1, human TLR7 (Homo sapiens, UniProt Q9NYK1); assay: TLR7 pathway activation, engineered tumor antigen-expressing HEK-Blue hTLR7 reporter cells (SEAP); type: cell-based; details: Table 1a, 96 hours, read-out: EC50 HEK-Blue-hTLR7-tumor Ag
T1 construct: host or cells: HEK293 (HEK-Blue hTLR7); engineered variants additionally transfected with tumor antigen genes
T1 sequence (Q9NYK1 27-1049): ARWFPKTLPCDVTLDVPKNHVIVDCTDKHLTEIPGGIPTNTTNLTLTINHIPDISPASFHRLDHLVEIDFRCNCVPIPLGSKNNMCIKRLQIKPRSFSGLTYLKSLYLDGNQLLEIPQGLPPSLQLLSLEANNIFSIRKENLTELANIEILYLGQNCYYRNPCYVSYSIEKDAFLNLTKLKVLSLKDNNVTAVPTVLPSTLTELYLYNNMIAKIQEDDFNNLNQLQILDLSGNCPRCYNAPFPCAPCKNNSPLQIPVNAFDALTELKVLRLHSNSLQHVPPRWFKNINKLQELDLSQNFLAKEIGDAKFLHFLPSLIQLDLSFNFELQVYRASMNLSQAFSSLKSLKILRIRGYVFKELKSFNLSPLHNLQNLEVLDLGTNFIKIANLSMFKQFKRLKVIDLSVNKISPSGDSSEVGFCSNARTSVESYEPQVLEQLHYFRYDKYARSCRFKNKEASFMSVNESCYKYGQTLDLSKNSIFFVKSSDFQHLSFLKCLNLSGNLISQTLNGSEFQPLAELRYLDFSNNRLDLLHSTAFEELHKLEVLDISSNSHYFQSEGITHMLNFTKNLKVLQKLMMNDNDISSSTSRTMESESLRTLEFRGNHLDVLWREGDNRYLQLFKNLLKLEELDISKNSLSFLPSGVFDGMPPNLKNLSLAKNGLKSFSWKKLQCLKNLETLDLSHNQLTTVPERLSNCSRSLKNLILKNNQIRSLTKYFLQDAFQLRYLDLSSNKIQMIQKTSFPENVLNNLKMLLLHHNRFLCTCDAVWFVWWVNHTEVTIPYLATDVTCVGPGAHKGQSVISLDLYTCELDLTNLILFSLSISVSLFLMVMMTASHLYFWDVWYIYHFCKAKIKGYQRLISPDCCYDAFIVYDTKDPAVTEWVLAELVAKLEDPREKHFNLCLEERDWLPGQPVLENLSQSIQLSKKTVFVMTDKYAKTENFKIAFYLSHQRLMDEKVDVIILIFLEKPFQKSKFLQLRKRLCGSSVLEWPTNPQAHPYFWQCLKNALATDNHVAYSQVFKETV
Description: (§1) The below tests involving measuring the in vitro activity of some compounds of the disclosure on human TLR7 pathway were carried out using parental HEK-Blue™ hTLR7 cells and engineered tumor antigen-expressing HEK-Blue™ hTLR7 cells respectively as reporter cells.
(§2) HEK-Blue™ hTLR7 Cells (#hkb-htlr7) and HEK-Blue™ hTLR8 Cells (#hkb-htlr8) cells from InvivoGen and the engineered tumor antigen expressing cells were used according to the manufacturer's instructions. The HEK-Blue™ hTLR7 and HEK-Blue™ hTLR8 cells were obtained by co-transfection of the hTLR7 or hTLR8 gene in HEK293 cells and an optimized Secreted Embryonic Alkaline Phosphatase (SEAP) reporter gene which is placed under the control of the IFN-β minimal promoter fused to five NF-κB and AP-1-binding sites. The human tumor antigen expressing HEK-Blue™ hTLR7 and hTLR8 cells were obtained by transfection of the tumor antigen genes in the parental cells followed by a polyclonal selection to enrich in cells overexpressing the tumor antigen. Stimulation with a TLR7/8 ligand activates NF-kB and AP-1 which induce the production of SLAP. The cells are seeded in 96-well plate at 3.10E4 cells/well and incubated 24 hours at 37C, 5% CO2 before adding the conjugates to be evaluated. The cells are subsequently incubated with 3-fold serial dilutions of each of the compounds (0.01 nM to 1 μM) for 96 hours at 37° C., 5% CO2. […]

human TLR7 [2] = biological target: T1, human TLR7; assay: TLR7 pathway activation, parental HEK-Blue hTLR7 reporter cells (SEAP); type: cell-based; details: Table 1b, 96 hours, read-out: EC50 HEKBlue-hTLR7
Description: as §1, §2

| Substance | EC50 (human TLR7 [1]) [nM] | EC50 (human TLR7 [2]) [nM] |
| --- | --- | --- |
| EGFR_cetuximab-PEG24-R848 ADC [Example 23] | 4.1 |  |
| CEACAM5_Tusamitamab_N361C-PEG24-R848 ADC [Example 40] |  | > 1000 |
| CEACAM5_Tusamitamab_K320C-PEG24-R848 ADC [Example 37] |  | > 1000 |
